Laboratory results as given in patent US20030207792A1, “Treating cancer” (priority 2002, published 2003).

Legend:
Assay type in all cases: cell-based
[1] = tested on: HCT116 cells; test: Growth curves of transfected HCT116 cultures; settings: oligonucleotide 1 μM with lipofectin
Protocol: (§1) Sense and antisense phosphorothionate oligonucleotide with the sequence set out in SEQ1 and SEQ2 respectively were synthesised in a 380B DNA synthesiser. Each oligonucleotide was premixed with lipofectin reagent and diluted in DMEM (Gibco). 6 cm plates of HCT116 cells at 40-50% confluence were rinsed once with 4 ml serum free DMEM and transfected with the oligonucleotides at a final concentration of 1 μM and the lipofectin reagent at a final concentration of 19 μg/ml according to the manufacturer's instructions (Life Technologies Inc., Gaithersburg, Md.). After 4 hours, Foetal Calf Serum (Gibco) was added to a final concentration of 10%. A lipofectin only transfection was performed as a control. Cell extracts were harvested after 48 h and examined by Western blot analysis with a pRb antibody. Equal loading of protein samples was confirmed by Coomassie blue staining or by immunoreactivity with an anti-actin antibody (Sigma). The intensities of the Rb bands were quantised with an image scanner (Molecular Dynamics). […] The treatment with the sense oligonucleotide led to about a 5% reduction in the level of pRb. […] Apoptosis in the cultures 48 h after transfection was tested for using the TUNEL assay. An in situ apoptosis detection kit ApopTag (Oncor, Gaithersburg, Md.) was used as recommended by the manufacturer. […]

[2] = tested on: pRb; test: Western blot analysis of pRb level in HCT116 cells 48 h after oligonucleotide transfection; settings: oligonucleotide 1 μM with lipofectin 19 μg/ml, extracts after 48 h, Western blot band intensity
Protocol: as §1

[3] = tested on: HCT116 cells; test: TUNEL assay (ApopTag) for apoptosis 48 h after transfection; settings: oligonucleotide 1 μM
Protocol: as §1

Q: What does the source list for 5′-GTCATGCCGCCCAAAACC-3′?
A: effect on growth (growth curves) compared with the lipofectin-treated control culture [1]: no significant effect on growth; reduction in the level of pRb [2]: 5%; percentage of TUNEL positive cells [3]: 3+/−0.5%
